For experiment [1], the target named is IDH1 R132H (Homo sapiens, UniProt O75874, R132H). Nature of the experiment: IDH1 R132H enzymatic assay (NADPH depletion coupled to diaphorase/resazurin). Conditions: read-out: Data for R132H. Background: Resazurin is reduced to fluorescent resorufin, in cell work by metabolically active cells.
The target of experiment [2] is IDH1 R132C (Homo sapiens, UniProt O75874, R132C). Nature of the experiment: IDH1 R132C enzymatic assay (NADPH depletion coupled to diaphorase/resazurin). Conditions: read-out: Data for R132C.
The mark [3] stands for this setting: IDH1 R132H enzymatic inhibition, IC50 class.
Where [4] appears, read: IDH1 R132C enzymatic inhibition, IC50 class.
Where [5] appears, read: enzymatic inhibition, IDH1 R132H.
Where [6] appears, read: enzymatic inhibition, IDH1 R132C.

Amino acid sequences for entries named in this document (tags omitted).
UniProt O75874, whole entry R132C: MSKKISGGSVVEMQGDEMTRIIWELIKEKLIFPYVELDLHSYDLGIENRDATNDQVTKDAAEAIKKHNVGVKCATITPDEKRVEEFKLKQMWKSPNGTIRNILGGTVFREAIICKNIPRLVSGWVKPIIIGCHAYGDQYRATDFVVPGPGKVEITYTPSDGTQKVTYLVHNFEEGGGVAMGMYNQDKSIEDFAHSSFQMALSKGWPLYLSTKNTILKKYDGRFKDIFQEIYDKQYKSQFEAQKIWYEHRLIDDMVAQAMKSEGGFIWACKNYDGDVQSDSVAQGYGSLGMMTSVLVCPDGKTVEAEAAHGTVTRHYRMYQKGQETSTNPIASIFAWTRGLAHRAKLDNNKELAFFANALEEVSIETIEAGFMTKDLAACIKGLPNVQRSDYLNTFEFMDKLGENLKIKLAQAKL
UniProt O75874, whole entry R132H: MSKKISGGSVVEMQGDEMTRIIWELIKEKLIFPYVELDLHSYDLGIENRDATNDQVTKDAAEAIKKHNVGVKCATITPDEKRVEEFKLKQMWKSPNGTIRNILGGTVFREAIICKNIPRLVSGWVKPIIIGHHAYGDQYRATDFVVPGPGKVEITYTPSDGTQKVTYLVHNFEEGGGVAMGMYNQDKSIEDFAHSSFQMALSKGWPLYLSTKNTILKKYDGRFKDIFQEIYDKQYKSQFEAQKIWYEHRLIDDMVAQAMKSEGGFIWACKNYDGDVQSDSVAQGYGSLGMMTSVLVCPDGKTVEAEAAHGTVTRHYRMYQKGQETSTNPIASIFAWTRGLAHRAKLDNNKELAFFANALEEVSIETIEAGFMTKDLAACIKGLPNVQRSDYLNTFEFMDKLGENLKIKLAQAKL

This is an account of results in patent publication US10703746B2, “Mutant IDH1 inhibitors useful for treating cancer” (THE UNITED STATES OF AMERICA, AS REPRESENTED BY THE …, priority 2014, dated 2020).

Where two headings read alike, the source gives them in different places.

For `CCOc1ccc(OCC)c(-n2c3c(cc(-c4nc(-c5ccc(Cl)cc5)cs4)c2=O)C(=O)CCC3)c1`, the IC50 in experiment [1] (setting [3]) and in experiment [2] (setting [4]) was 300 to 1000 nM each time.
For the compound `CCOc1cccc(F)c1-n1c(C=C(C)C)c(C(=O)N2CCNCC2)cc(-c2nc(-c3ccc(Cl)cc3)cs2)c1=O`, the IC50 was below 300 nM in experiment [1] (enzymatic inhibition, IDH1 R132H, tested form: TFA salt) and below 300 nM in experiment [2] (enzymatic inhibition, IDH1 R132C, tested form: TFA salt).
In the case of `CCc1cccc(CC)c1-n1c(C=C(C)C)c(C(=O)N2C[C@@H]3C[C@H]2CN3)cc(-c2nc(-c3ccc(C(F)(F)F)cc3)cs2)c1=O`, the IC50 in experiment [1] (setting [5]) is 300 to 1000 nM; in experiment [2] (setting [6]) it was below 300 nM.
In the case of `CCc1cccc(CC)c1-n1c(C=C(C)C)c(C(=O)N2C[C@H]3CC[C@@H](C2)N3)cc(-c2nc(-c3ccc(Cl)cc3)cs2)c1=O` [Compound 388], the IC50 in experiment [1] (setting [5]) and in experiment [2] (setting [6]) was below 300 nM each time.
With `CCc1cccc(CC)c1-n1c(C=C(C)C)c(C(=O)N2CCNCC2)cc(-c2ccn(-c3ccc(OC(C)C)cc3)n2)c1=O`, the IC50 was below 300 nM in experiment [1] (IDH1 R132H enzymatic inhibition, IC50 class, tested form: TFA salt) and below 300 nM in experiment [2] (IDH1 R132C enzymatic inhibition, IC50 class, tested form: TFA salt).
For `CCc1cccc(CC)c1-n1c(CC(C)C)c(C(=O)N2CCNCC2)cc(-c2nc(-c3ccc(OC(F)(F)F)cc3)c(C)s2)c1=O`, the figures for the IC50 in experiment [1] (setting [3]) and in experiment [2] (setting [4]) were 300 to 1000 nM and below 300 nM, respectively.
With `CCc1cccc(CC)c1-n1c(CC(C)OC)c(C(=O)N2CCNCC2)cc(-c2nc(-c3ccc(Cl)cc3)cs2)c1=O` (centres unmarked), the IC50 was below 300 nM in experiment [1] (setting [5]) and 300 to 1000 nM in experiment [2] (setting [6]).
With `CCc1cccc(CC)c1-n1c(CC(C)C)c(C(=O)N2CCNCC2)cc(-c2nc(-c3ccc(OCC(C)C)cc3)c(C)s2)c1=O`, the IC50 in experiment [1] (setting [3]) and in experiment [2] (setting [4]) was 1000 to 5000 nM each time.
Take `CCc1cccc(CC)c1-n1c(CO)c(C(=O)O)cc(-c2nc(-c3ccc(Cl)cc3)cs2)c1=O`: the IC50 in experiment [1] (setting [3]) and in experiment [2] (setting [4]) was 5000 to 20000 nM each time.
On to `CCc1cccc(CC)c1-n1c(CC(C)C)c(C(=O)NCC(C)O)cc(-c2nc(-c3ccc(Cl)cc3)cs2)c1=O` (centres unmarked), for which the IC50 in experiment [1] (setting [3]) is 300 to 1000 nM; in experiment [2] (setting [4]) it was below 300 nM.
